Test results from patent publication US9439928B2, “Method for combined conditioning and chemoselection in a single cycle” (THE REGENTS OF THE UNIVERSITY OF CALIFORNIA, priority 2011, dated 2016).
Read-outs that look alike come from different tables or passages of the source.

Test system: BM of HPRT-wt mice
Conditions: for B220+ cells in BM / CD4+ cells in BM / CD8+ cells in BM / KLS (HSC) cells in BM / Mac1+/Gr1+ cells in BM: % of total CD45+ cells; for B220+ cells in BM / CD4+ cells in BM / CD8+ cells in BM / KLS (HSC) cells in BM / Mac1+/Gr1+ cells in BM / CD45+ cells in BM: mean ± SD, n=3
[1] = single dose 10 mg/kg 6TG Day 1, analysis Day 4 (ii)
[2] = two doses 10 mg/kg 6TG Days 1 and 3, analysis Day 4 (iii)
[3] = two doses 10 mg/kg 6TG Days 1 and 3, analysis Day 7 (iv)

Nc1nc2nc[nH]c2c(=S)[nH]1 [6TG, 6-thioguanine]
decrease of relative proportion of KLS progenitors in BM vs control (10 mg/kg 6TG x 2, by Day 4, p<0.01): 3 fold
decrease of relative proportion of KLS progenitors in BM vs control (10 mg/kg 6TG x 2, by Day 7, p<0.001): 10 fold
clinical signs (any conditioning regimen, Day 4): No readily apparent clinical signs
change of relative percentage of B220+ cells in BM vs controls (by Day 4): no significant change
change of relative percentage of B220+ cells in BM vs controls (by Day 7): doubled
increase of relative percentage of mature CD8+ and CD4+ T cells in BM vs controls (by Day 7, p<0.001): up to 7 fold
clinical signs (conditioning regimens, extended observation, by Day 7): weight loss and pallor of the extremities
liver enzymes (following conditioning regimen): not elevated
B220+ cells in BM [1]: 23.1 ± 2.2%
CD4+ cells in BM [1]: 11.9 ± 2.5%
CD8+ cells in BM [1]: 5.3 ± 1.7%
KLS (HSC) cells in BM [1]: 1.3 ± 0.2%
Mac1+/Gr1+ cells in BM [1]: 85.4 ± 1.8%
CD45+ cells in BM [1]: 95.7 ± 0.8%
BM histology (H&E) (single dose 2.5, 5.0 or 10 mg/kg i.p. Day 1 or two doses 10 mg/kg Days 1 and 3, Day 4): Increasing myelotoxicity
B220+ cells in BM [2]: 26.2 ± 1.8%
CD4+ cells in BM [2]: 9.6 ± 0.6%
CD8+ cells in BM [2]: 5.2 ± 0.4%
KLS (HSC) cells in BM [2]: 1.4 ± 0.5%
Mac1+/Gr1+ cells in BM [2]: 81.0 ± 1.3%
CD45+ cells in BM [2]: 95.7 ± 0.1%
B220+ cells in BM [3]: 56.3 ± 1.5%
CD4+ cells in BM [3]: 20.5 ± 3.1%
CD8+ cells in BM [3]: 25.0 ± 2.7%
KLS (HSC) cells in BM [3]: 0.4 ± 0.2%
Mac1+/Gr1+ cells in BM [3]: 61.8 ± 3.0%
CD45+ cells in BM [3]: 82.8 ± 5.1%
BM nucleated cell count recovered from one femur and tibia (two doses of 10 mg/kg 6TG, analyzed on Day 7, n=3): 4.7×10^6±1.0×10^6
